Reference: patent US7012090B1, “Pyranoindoles for treating glaucoma” (Alcon, Inc., priority 2000, dated 2006)

Protein sequences, listed by entry. Tags and fused reporters are not part of them.
UniProt P14842, whole entry: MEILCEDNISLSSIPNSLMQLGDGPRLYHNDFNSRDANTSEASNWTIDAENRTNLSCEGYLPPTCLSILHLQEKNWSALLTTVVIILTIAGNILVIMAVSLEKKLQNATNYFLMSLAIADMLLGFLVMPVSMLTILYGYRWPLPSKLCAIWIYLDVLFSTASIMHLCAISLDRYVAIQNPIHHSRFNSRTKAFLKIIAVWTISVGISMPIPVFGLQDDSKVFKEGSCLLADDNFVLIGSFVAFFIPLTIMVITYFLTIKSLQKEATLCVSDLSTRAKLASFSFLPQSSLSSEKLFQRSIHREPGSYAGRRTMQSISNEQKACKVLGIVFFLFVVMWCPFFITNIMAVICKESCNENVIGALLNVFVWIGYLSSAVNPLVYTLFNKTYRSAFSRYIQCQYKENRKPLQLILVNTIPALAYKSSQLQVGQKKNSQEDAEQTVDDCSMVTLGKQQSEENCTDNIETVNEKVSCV

Target: T1, 5-HT2 receptor (Rattus norvegicus, UniProt P14842)
T1 construct: [^3H]myo-inositol-labeled A7r5 rat vascular smooth muscle cells; endogenous in cells; host or cells: A7r5 rat vascular smooth muscle cells
Assay: 5-HT2 Functional Assay: Phosphoinositide (PI) Turnover Assay
Type: cell-based
Details: A7r5 cells, relative to 5-HT set at 100%
Experimental: 5-HT2 Functional Assay: Phosphoinositide (PI) Turnover Assay
The relative agonist activity of serotonergic compounds at the 5-HT2 receptor can be determined in vitro using the ability of the compounds to stimulate the production of [^3H]inositol phosphates in [^3H]myo-inositol-labeled A7r5 rat vascular smooth muscle cells by their ability to activate the enzyme phospholipase C. These cells are grown in culture plates, maintained in a humidified atmosphere of 5% CO2 and 95% air and fed semi-weekly with Dulbecco's modified Eagle medium (DMEM) containing 4.5 g/l glucose and supplemented with 2 mM glutamine, 10 μg/ml gentamicin, and 10% fetal bovine serum. For the purpose of conducting the phosphoinositide (PI) turnover experiments, the A7r5 cells are cultured in 24-well plates as previously [J. Pharmacol. Expt. Ther., 286, 411 (1998)]. Confluent cells are exposed for 24-30 hrs to 1.5 μCi [^3H]-myo-inositol (18.3 Ci/mmol) in 0.5 ml of serum-free medium. […] The eluate (4 ml) is collected, mixed with 15 ml scintillation fluid, and the total [^3H]-IPs determined by scintillation counting on a beta-counter. Concentration-response data are analyzed by the sigmoidal fit function of the Origin Scientific Graphics software (Microcal Software, Northampton, Mass.) to determine agonist potency (EC50 value) and efficacy (Emax). […]

## COc1cc(C[C@@H](C)N)c(OC)cc1I [(R)-DOI, reference compound]
  Efficacy (Emax, %): 82%
